The target in this experiment is Protein farnesyltransferase (Homo sapiens, UniProt P49354+P49356). In words: Inhibition of Protein farnesyltransferase (FPT). It counts as protein-complex assay. The settings on record: read-out: I50.

For `CC(C)C[C@H](NC(=O)[C@@H](NC(=O)[C@@H](N)CS)C(C)C)C(=O)N[C@@H](CO)C(=O)O`, the IC50 was found to be 1000 nM.

(Values after ChEMBL document CHEMBL1127942, “Phenol based tripeptide inhibitors of ras farnesyl protein transferase” (Bioorg Med Chem Lett, 1994).)
